Assay results: patent US12605424B2 (priority 2019, dated 2026)

Assays:
[1] = tested on: mice and rats exposed to Cl2 gas; conditions: IM injection of nitrite, post-Cl2 gas exposure; cited from earlier work
[2] = tested on: C57BL/6 mice exposed to Br2 or Cl2 gas; assay: Acute Br2 (600 ppm) or Cl2 (400 ppm) exposure of adult mice, hemopexin IM 1 h later: RBC damage and ENaC activity; conditions: for RBC plasma membrane protein carbonyl adducts: RBCs 1-day post exposure
[3] = Br2, hemopexin 4 mg/kg BW, lungs 24 h post exposure
[4] = single intramuscular injection of hemopexin (4 μg/kg body weight), one-hour post halogen gas exposure

| Substance | ALI and reactive airways [1] | RBC plasma membrane protein carbonyl adducts ([2]; Br2 600 ppm 30 min, hemopexin 4 mg/kg BW IM 1 h later) | open probability (P0) of 4 pS channels in AT2 cells [2, 3] | open probability (P0) of 16 pS channels in AT2 cells [2, 3] | RBC plasma membrane protein carbonyl adducts ([2]; Cl2 400 ppm 30 min, hemopexin 4 mg/kg BW IM 1 h later) | RBC hemolysis under mechanical stress ([2]; mice exposed to Br2 or Cl2 gas, hemopexin 4 mg/kg BW IM 1 h later) | lung ENaC activity [2, 4] | plasma CFH [2, 4] |
| --- | --- | --- | --- | --- | --- | --- | --- | --- |
| nitrite | decreases ALI and reactive airways |  |  |  |  |  |  |  |
| Hemopexin |  | attenuated | significant recovery | significant recovery | attenuated | reduced RBC hemolysis | improved lung ENaC activity | decreased plasma CFH |
